Source: patent US20170343570A1
Values after ≈ are worked out from the molar mass of the structure shown. This is a selection: effects in other tests are not listed, and their absence says nothing.

System: antibody derived from Immunogen 2 (polyclonal antisera)
Assay: Competitive assay (ELISA) for cross-reactivity measurement
Conditions: for % CR (cross-reactivity): MT-45 = 100; for Ave OD: OD 450 nm; for CR, Curve 1: replicate run 1; for CR, Curve 2: replicate run 2; for CR, Curve 3: replicate run 3
[1] = Table 1a, antisera 0.625 μg/ml from sheep 1
[2] = Table 1a, antisera 0.625 μg/ml from sheep 1, average of 3 curves
[3] = Table 1a, antisera 0.625 μg/ml from sheep 1, standard conc. 0.015625 ng/ml
[4] = Table 1a, antisera 0.625 μg/ml from sheep 1, standard conc. 0.03125 ng/ml
[5] = Table 1a, antisera 0.625 μg/ml from sheep 1, standard conc. 0.0625 ng/ml
[6] = Table 1a, antisera 0.625 μg/ml from sheep 1, standard conc. 0.125 ng/ml
[7] = Table 1a, antisera 0.625 μg/ml from sheep 1, standard conc. 0.25 ng/ml
[8] = Table 1a, antisera 0.625 μg/ml from sheep 1, standard conc. 0.5 ng/ml
[9] = Table 1a, antisera 0.625 μg/ml from sheep 1, standard conc. 1 ng/ml
[10] = Table 1b, antisera 10.00 μg/ml from sheep 2
[11] = Table 1b, antisera 10.00 μg/ml from sheep 2, average of 3 curves
[12] = Table 1b, antisera 10.00 μg/ml from sheep 2, standard conc. 0.03125 ng/ml
[13] = Table 1b, antisera 10.00 μg/ml from sheep 2, standard conc. 0.0625 ng/ml
[14] = Table 1b, antisera 10.00 μg/ml from sheep 2, standard conc. 0.125 ng/ml
[15] = Table 1b, antisera 10.00 μg/ml from sheep 2, standard conc. 0.25 ng/ml
[16] = Table 1b, antisera 10.00 μg/ml from sheep 2, standard conc. 0.5 ng/ml
[17] = Table 1b, antisera 10.00 μg/ml from sheep 2, standard conc. 1 ng/ml
[18] = Table 1b, antisera 10.00 μg/ml from sheep 2, standard conc. 2 ng/ml
[19] = Table 1c, antisera 5.00 μg/ml from sheep 3
[20] = Table 1c, antisera 5.00 μg/ml from sheep 3, standard conc. 0.03125 ng/ml
[21] = Table 1c, antisera 5.00 μg/ml from sheep 3, standard conc. 0.0625 ng/ml
[22] = Table 1c, antisera 5.00 μg/ml from sheep 3, standard conc. 0.125 ng/ml
[23] = Table 1c, antisera 5.00 μg/ml from sheep 3, standard conc. 0.25 ng/ml
[24] = Table 1c, antisera 5.00 μg/ml from sheep 3, standard conc. 0.5 ng/ml
[25] = Table 1c, antisera 5.00 μg/ml from sheep 3, standard conc. 1 ng/ml
[26] = Table 1c, antisera 5.00 μg/ml from sheep 3, standard conc. 2 ng/ml

SMILES: Oc1cccc(CC(c2ccccc2)N2CCN(C3CCCCC3)CC2)c1 (stereo not drawn)
- IC50 [1]: 0.158 ng/mL (≈ 0.433 nM)
- % CR (cross-reactivity) [2]: 82.9%
- B/Bo [3]: 92%
- Ave OD [3]: 1.905
- B/Bo [4]: 87%
- Ave OD [4]: 1.818
- B/Bo [5]: 73%
- Ave OD [5]: 1.511
- B/Bo [6]: 58%
- Ave OD [6]: 1.203
- B/Bo [7]: 37%
- Ave OD [7]: 0.765
- B/Bo [8]: 19%
- Ave OD [8]: 0.389
- B/Bo [9]: 9%
- Ave OD [9]: 0.192
- CR, Curve 1 (Table 1a, sheep 1 antisera): 75.8%
- CR, Curve 2 (Table 1a, sheep 1 antisera): 80.5%
- CR, Curve 3 (Table 1a, sheep 1 antisera): 92.4%
- IC50 [10]: 0.344 ng/mL (≈ 0.944 nM)
- % CR (cross-reactivity) [11]: 81.1%
- B/Bo [12]: 89%
- Ave OD [12]: 1.713
- B/Bo [13]: 82%
- Ave OD [13]: 1.573
- B/Bo [14]: 70%
- Ave OD [14]: 1.353
- B/Bo [15]: 57%
- Ave OD [15]: 1.101
- B/Bo [16]: 42%
- Ave OD [16]: 0.811
- B/Bo [17]: 27%
- Ave OD [17]: 0.528
- B/Bo [18]: 17%
- Ave OD [18]: 0.321
- CR, Curve 1 (Table 1b, sheep 2 antisera): 73.4%
- CR, Curve 2 (Table 1b, sheep 2 antisera): 82.6%
- CR, Curve 3 (Table 1b, sheep 2 antisera): 87.3%
- % CR (cross-reactivity) [19]: 88.4%
- B/Bo [20]: 93%
- Ave OD [20]: 1.725
- B/Bo [21]: 83%
- Ave OD [21]: 1.548
- B/Bo [22]: 68%
- Ave OD [22]: 1.266
- B/Bo [23]: 50%
- Ave OD [23]: 0.927
- B/Bo [24]: 33%
- Ave OD [24]: 0.612
- B/Bo [25]: 19%
- Ave OD [25]: 0.350
- B/Bo [26]: 10%
- Ave OD [26]: 0.189

SMILES: c1ccc(CC(c2ccccc2)N2CCN(C3CCCCC3)CC2)cc1 (stereo not drawn)
- IC50 [1]: 0.131 ng/mL (≈ 0.376 nM)
- % CR (cross-reactivity) [2]: 100%
- B/Bo [3]: 91%
- Ave OD [3]: 1.903
- B/Bo [4]: 76%
- Ave OD [4]: 1.602
- B/Bo [5]: 72%
- Ave OD [5]: 1.506
- B/Bo [6]: 51%
- Ave OD [6]: 1.069
- B/Bo [7]: 33%
- Ave OD [7]: 0.687
- B/Bo [8]: 16%
- Ave OD [8]: 0.339
- B/Bo [9]: 8%
- Ave OD [9]: 0.165
- IC50 [10]: 0.279 ng/mL (≈ 0.8 nM)
- % CR (cross-reactivity) [11]: 100%
- B/Bo [12]: 82%
- Ave OD [12]: 1.594
- B/Bo [13]: 79%
- Ave OD [13]: 1.543
- B/Bo [14]: 66%
- Ave OD [14]: 1.286
- B/Bo [15]: 52%
- Ave OD [15]: 1.006
- B/Bo [16]: 37%
- Ave OD [16]: 0.728
- B/Bo [17]: 24%
- Ave OD [17]: 0.462
- B/Bo [18]: 14%
- Ave OD [18]: 0.276
- IC50 [19]: 0.221 ng/mL (≈ 0.634 nM)
- % CR (cross-reactivity) [19]: 100%
- B/Bo [20]: 83%
- Ave OD [20]: 1.549
- B/Bo [21]: 81%
- Ave OD [21]: 1.523
- B/Bo [22]: 64%
- Ave OD [22]: 1.205
- B/Bo [23]: 46%
- Ave OD [23]: 0.851
- B/Bo [24]: 28%
- Ave OD [24]: 0.527
- B/Bo [25]: 16%
- Ave OD [25]: 0.294
- B/Bo [26]: 8%
- Ave OD [26]: 0.155
- IC50 of the antibody to MT-45 as calculated from a standard curve (antibody from KLH immunogen, MT-45-CME-HCTL-maleimide-HRP (Tracer 2) as detecting agent): < 1.00 ng/mL
